# Source: PubChem BioAssay
# Vif imaging: inhibitors of HIV Vif; AID 602346; inhibition, % at 7.49 µM; 340,000 tested, 0.35% active; HEK293T cells, Vif self-association by quenched fluorescence, imaging, 24 h; in the data active = inhibition above about 50%, passing the limit was not always enough; inconclusive = no clear call, values can overlap the other calls; inactive = below about 31%
# PglD DTNB: blocks C. jejuni PglD acetyltransferase activity; purified PglD enzyme, DTNB colorimetric CoA detection; inhibition, % at 12.5 µM; 360,000 tested, 0.098% active; AID 602405; in the data active = inhibition above about 16%, passing the limit was not always enough; inconclusive = no clear call, values can overlap the other calls
# CAL PDZ FP-1: CAL PDZ (human) peptide binding inhibition; Q9HD26; purified CAL PDZ, TMR-peptide fluorescence polarization, 1 h; inhibition, % at 24.9 µM; 300,000 tested, 0.92% active; AID 602252;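 active = mean inhibition of at least 30% with at least half of replicates also reaching 30%; inconclusive = no clear call, values can overlap the other calls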;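 note: 0% = DMSO neutral control and 100% = excess unlabeled competitor peptide PRC23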
# ARNT TACC3 PPI: disrupts binding between human ARNT and TACC3. Q9Y6A5. AlphaScreen His-ARNT PAS-B/GST-TACC3 binding, luminescence; TACC3 fragment carries E629A point mutation. inhibition, % at 9.99 µM. 390,000 tested, 0.66% active;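 active = mean inhibition of replicates at least 50% and at least half of replicates each reaching 50%; inconclusive = half or more replicates reach 50% but mean below 50%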;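 note: 0% = complete ARNT plus TACC3 wells and 100% = ARNT alone without TACC3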
# UUG fidelity: yeast start codon fidelity modulation; activity score, % at 18.7 µM; actives 0.13% (n = 350,000); S. cerevisiae UUG-firefly luciferase reporter, luminescence/redox ratio; AID 602363;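 active means replicate mean at a twofold rise or more, about +100% in these data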;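 further: firefly luciferase made from a UUG start codon reports start codon fidelity; reporter light over untreated wells divided by growth signal over untreated wells; some hits fall short of that in this replicate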
# CAL PDZ FP-2: human CAL PDZ-peptide interaction inhibition. inhibition, % at 20 µM. Q9HD26. 330,000 tested, 0.02% active. purified CAL PDZ, TMR-peptide fluorescence polarization, 1 h. AID 504414;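 active = highest replicate inhibition of at least 40%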;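 note: plate controls were DMSO neutral control wells for no effect and unlabeled competitor peptide control wells for full effect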
#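 Test system: purified CerCALP PDZ construct; Compound dosing: one concentration, 20 µM compound; Also added: TMR-labelled reporter peptide T*-PRC34 bound in PDZ groove; Read-out: inhibition from polarization loss; Controls: unlabelled peptide and DMSO controls; Signal: FP readout, S and P plane fluorescence; Incubation: 1 h at RT.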
# * hit, by the source's call; ? = inconclusive; . = no result given. In the library only some 1.6% were active in any assay of this set; here they are far more common.
1. COCC(=O)Nc1ccc2c(c1)C(=O)N(C)[C@H]1CC[C@@H](CC(=O)NCc3ccccc3)O[C@H]1CO2
2. COc1cccc(/C=C2\SC(=S)N(CCCC(=O)N3CCCCC3CCO)C2=O)c1 (stereo not drawn)
3. COc1ccc(/C=C2/SC(=S)N(CCCC(=O)Nc3ccc(O)cc3)C2=O)cc1
4. O=C(CCCN1C(=O)/C(=C\c2ccccc2)SC1=S)Nc1ccc(O)cc1C(=O)O
5. C[C@@H]1CN([C@H](C)CO)C(=O)Cc2cc(NC(=O)Nc3ccc(C(F)(F)F)cc3)ccc2O[C@@H]1CN(C)Cc1ccc(Oc2ccccc2)cc1
Compound	1	2	3	4	5
Vif imaging	.	4	-2	1	.
PglD DTNB	-1	-3	-16	3	1
CAL PDZ FP-1	.	88*	46*	77*	.
ARNT TACC3 PPI	-9	9	2	5	8
UUG fidelity	2	-35	-11	-7	3
CAL PDZ FP-2	.	0	0	-1	.

6. COc1ccccc1-c1c(C)nn2c(N)c(-c3ccccc3)cnc12
7. CSc1nnnn1-c1c(C)cccc1C
8. O=C(CNC(=O)c1ccccc1)OCC(=O)c1ccccc1Cl
9. O=C(O)C1Cc2ccccc2CN1S(=O)(=O)/C=C/c1ccccc1 (stereo not drawn)
10. NC(=O)NC(=O)CC1S/C(=N/N=C2\CSC(=O)N2)NC1=O (stereo not drawn)
Compound	6	7	8	9	10
Vif imaging	-12	51*	.	5	-1
PglD DTNB	-2	.	-6	-4	-2
CAL PDZ FP-1	69*	-18	49*	.	0
ARNT TACC3 PPI	11	-5	-4	46*	53*
UUG fidelity	1	.	35	-10	-26
CAL PDZ FP-2	.	-1	0	-1	-1

11. O=C(O)CNC(=O)CC1S/C(=N/N=C2/NC(=O)CS2)NC1=O (stereo not drawn)
12. CC1(C)Cc2ccccc2C(NNC(=O)c2ccccn2)=N1
13. CCC(=O)N1C[C@H](C)[C@@H](OC)CN(C)C(=O)c2cc(NC(=O)NC(C)C)ccc2OC[C@H]1C
14. O=C(COc1ccccc1)NCC1COc2ccccc2O1 (stereo not drawn)
15. O=C(COc1ccccc1[N+](=O)[O-])NCC1COc2ccccc2O1 (stereo not drawn)
Compound	11	12	13	14	15
Vif imaging	17	3	.	?	0
PglD DTNB	.	-7	2	8	4
CAL PDZ FP-1	1	-4	.	.	30*
ARNT TACC3 PPI	58*	66*	-9	-11	17
UUG fidelity	.	-13	23	-11	12
CAL PDZ FP-2	-2	0	.	-4	0

16. CC1CCN(C(=O)Cn2cc3c(n2)CCCC3)CC1
17. C[C@H](CO)N1C[C@H](C)[C@@H](CN(C)C(=O)Nc2ccccc2F)Oc2cc(-c3ccccc3)ccc2S1(=O)=O
18. O=C(NC1CCCN(Cc2ccc(Cl)cc2)C1)c1cccc(N2CCCC2=O)c1 (stereo not drawn)
19. COc1ccccc1-c1cnc2c(c1)C(=O)N([C@@H](C)CO)C[C@H](C)[C@@H](CN(C)Cc1cccc(F)c1)O2
20. O=CNC1c2ccccc2CCc2ccccc21
Compound	16	17	18	19	20
Vif imaging	-3	.	-4	.	61*
PglD DTNB	0	1	4	0	0
CAL PDZ FP-1	.	.	-3	.	-4
ARNT TACC3 PPI	47*	-3	-1	3	-8
UUG fidelity	2	-2	-10	5	-31
CAL PDZ FP-2	-1	.	139*	.	0

# Complete entries, quoted from the list:
# Results for COc1ccccc1-c1cnc2c(c1)C(=O)N([C@@H](C)CO)C[C@H](C)[C@@H](CN(C)Cc1cccc(F)c1)O2 = Vif imaging: .; PglD DTNB: 0; CAL PDZ FP-1: .; ARNT TACC3 PPI: 3; UUG fidelity: 5; CAL PDZ FP-2: .
# Results for C[C@H](CO)N1C[C@H](C)[C@@H](CN(C)C(=O)Nc2ccccc2F)Oc2cc(-c3ccccc3)ccc2S1(=O)=O = Vif imaging: .; PglD DTNB: 1; CAL PDZ FP-1: .; ARNT TACC3 PPI: -3; UUG fidelity: -2; CAL PDZ FP-2: .

# Following part:
21. c1cncc(CSc2ccc(-c3ccc4c(c3)OCO4)nn2)c1
22. CCCn1c(=O)c2c(nc3n2CCCN3Cc2ccccc2)n(C)c1=O
23. COc1cccc(N2CCN(C(=O)c3ccc(CS(=O)c4ccc(C)cc4)o3)CC2)c1 (stereo not drawn)
24. COc1cccc(N2CCN(C(=O)c3ccc(CS(=O)c4ccc(Cl)cc4)o3)CC2)c1 (stereo not drawn)
25. O=C1CN(C(=O)c2ccccc2[N+](=O)[O-])C(c2ccccc2)c2cc(Br)ccc2N1 (stereo not drawn)
Compound	21	22	23	24	25
Vif imaging	0	-13	56*	2	-10
PglD DTNB	-1	-5	-7	0	4
CAL PDZ FP-1	46*	-3	-1	1	.
ARNT TACC3 PPI	3	49*	-22	6	2
UUG fidelity	-27	-3	-14	-17	-6
CAL PDZ FP-2	-2	0	-3	-2	0

26. Cc1ccc2c(c1)C(c1ccccc1)N(C(=O)c1ccccc1[N+](=O)[O-])CC(=O)N2 (stereo not drawn)
27. Cc1c(C(=O)NCc2ccccn2)oc2ccc(S(=O)(=O)N3CCOCC3)cc12
28. O=C(NCc1ccccn1)c1ccc(Cl)c(S(=O)(=O)N2CCCCCC2)c1
29. Cc1c(C(=O)NCc2cccs2)oc2ccc(S(=O)(=O)N3CCOCC3)cc12
30. CN1CCN(C(=O)C[C@@H]2C[C@@H]3c4cc(NC(=O)CC5CC5)ccc4O[C@@H]3[C@@H](CO)O2)CC1
Compound	26	27	28	29	30
Vif imaging	-5	86*	.	16	.
PglD DTNB	2	-8	1	4	0
CAL PDZ FP-1	71*	-2	-4	-4	.
ARNT TACC3 PPI	-2	5	46*	6	-30
UUG fidelity	-8	-18	-27	-6	47
CAL PDZ FP-2	0	-1	-1	-3	.

31. CC(=O)N(C1=C(N)C(=O)c2ccccc2C1=O)c1ccccc1
32. O=C(N(c1ccccc1)c1ccccc1)N(c1ccccc1)c1ccccc1
33. CC1=NN2C(=N)/C(=C\c3cc(C)n(Cc4ccccc4)c3C)C(=O)N=C2S1
34. CC1=NN2C(=N)/C(=C\c3ccc(SCc4ccccc4)o3)C(=O)N=C2S1
35. Cc1ccc2c(c1)CC1(CN2C)C(=O)OC2(CCCCC2)OC1=O
Compound	31	32	33	34	35
Vif imaging	12	-5	-7	18	7
PglD DTNB	8	1	-1	1	0
CAL PDZ FP-1	-2	.	.	55*	78*
ARNT TACC3 PPI	12*	.	.	6	-4
UUG fidelity	20	-26	1	-14	-98
CAL PDZ FP-2	1	.	.	-1	0

36. CN1CC2(Cc3c1ccc1ccccc31)C(=O)OC(C)(C)OC2=O
37. COC(=O)CSc1nc(C2CC2)cc(C(F)(F)F)c1C#N
38. C[C@@H]1CN([C@H](C)CO)C(=O)c2cccc(NC(=O)C3CCCCC3)c2O[C@H]1CN(C)Cc1ccc(-c2ccccc2)cc1
39. CCOC(=O)C1CCCN(S(=O)(=O)c2ccc(Cl)nc2)C1 (stereo not drawn)
40. O=S(=O)(c1ccc(Cl)nc1)N1CCOCC1
Compound	36	37	38	39	40
Vif imaging	5	79*	.	-4	-16
PglD DTNB	4	0	.	-2	-2
CAL PDZ FP-1	-3	-1	.	46*	6
ARNT TACC3 PPI	2	-4	.	-3	22*
UUG fidelity	-20	-13	-5	-14	-4
CAL PDZ FP-2	-1	-1	.	1	0

# Printed as active in CAL PDZ FP-2, of those listed so far:
18. O=C(NC1CCCN(Cc2ccc(Cl)cc2)C1)c1cccc(N2CCCC2=O)c1 (stereo not drawn)
Compound	18
Vif imaging	-4
PglD DTNB	4
CAL PDZ FP-1	-3
ARNT TACC3 PPI	-1
UUG fidelity	-10
CAL PDZ FP-2	139*

# The results go on:
41. Cc1ccc(NC(=S)N(CCCN2CCCC2)Cc2cccn2Cc2ccc(Cl)cc2)cc1C
42. Cc1cc(C(=O)Nc2ccc(Cl)cc2)c(C)n1-c1ccccc1
43. Cc1cc(C(=O)NNS(=O)(=O)c2cc(C(=O)O)ccc2Cl)c(C)n1-c1ccccc1
44. Cc1cccc(C)c1NC(=O)Cn1nnnc1N
45. Cc1cccc(C)c1NC(=O)CN
46. N#C[C@H]1[C@@H](c2ccccc2)[C@@H](CO)N1C(=O)Cc1ccccn1
Compound	41	42	43	44	45	46
Vif imaging	-3	-6	-1	2	7	.
PglD DTNB	-2	2	-4	1	1	-1
CAL PDZ FP-1	79*	.	39*	66*	2	.
ARNT TACC3 PPI	1	.	2	-1	0	6
UUG fidelity	-23	-81	-5	-4	-25	4
CAL PDZ FP-2	-2	.	-1	8	1	.
